Measured values from PubChem BioAssay AID492972 (The Scripps Research Institute Molecular Screening Center, 2010).
The entries are a selection whose mix differs from that of the whole data set. Activity calls are given as the source filed them.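 Rule for the calls: active = inhibition above the screen-wide average of all tested compounds plus 3 SD (cut at about 25% in these data); inactive = the rest.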

Chains of the proteins cited; added tags and fusions are not shown. Lines headed by an entry give the natural chain unless they say otherwise; changes in a name come on top.
UniProt Q15102: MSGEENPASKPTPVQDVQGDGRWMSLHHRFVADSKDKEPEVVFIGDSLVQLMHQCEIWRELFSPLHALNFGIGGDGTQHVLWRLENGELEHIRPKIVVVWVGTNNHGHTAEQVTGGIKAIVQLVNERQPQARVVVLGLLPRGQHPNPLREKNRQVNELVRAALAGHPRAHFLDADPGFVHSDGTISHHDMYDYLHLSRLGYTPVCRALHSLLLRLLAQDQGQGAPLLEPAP

target: Platelet-activating factor acetylhydrolase IB subunit alpha1 (Homo sapiens) (UniProt Q15102); experiment: PAFAH1B3 enzyme inhibitors, primary screen, biochemical, fluorescence polarization, human (AID 492972); conditions: recombinant PAFAH1B3, FP-rhodamine probe, at 3.39 µM, hits give high values;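 note: 0% = enzyme with DMSO only and 100% = wells lacking PAFAH1B3 protein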

Structure (SMILES)	inhibition
O=[N+]([O-])c1cc([N+](=O)[O-])c(CCNc2ccccc2)c([N+](=O)[O-])c1	inactive: 12%
Cc1ccc(NP(=O)(Oc2ccccc2)Oc2ccccc2)nc1	inactive: 7.07%
O=[N+]([O-])c1cccc2n[nH]nc12	inactive: 3.15%
CC(=O)N1C2C3N(C(C)=O)C1C1N(C(C)=O)C(C(N1C(C)=O)N3C(C)=O)N2C(C)=O	inactive: 4.33%
CCN(/C(=N/P(=O)(N1CCOCC1)N1CCOCC1)N1CCOCC1)c1ccc(OC)cc1	inactive: 4.08%
C[N+]1=C2C=CC=CC=C2SC12C([N+](=O)[O-])=CC([N+](=O)[O-])=C[C-]2[N+](=O)[O-] (stereo unspecified)	active: 26.1%
Nc1ccc([As](=O)(O)c2ccc(N)cc2)cc1	inactive: 6.77%
CC1CCN(C(=O)Oc2c(Cl)cc(Cl)c3cccnc23)CC1	inactive: 3.96%
CN(C)C(=O)OCCc1n(C)cc[n+]1C	inactive: 0.17%
CC(C)=N/N=C(\N)N[N+](=O)[O-]	inactive: 8.34%
O=P1(N(CCCl)CCCl)OCCCS1 (stereo unspecified)	inactive: 2.09%
O=C(Nc1cc([As](=O)(O)O)ccc1O)c1ccccc1	inactive: 12.1%
O=[N+]([O-])c1ncn(CCn2ncnc2[N+](=O)[O-])n1	inactive: 4.91%
CC(C)(C)C(=O)NC(Sc1ccncn1)C(Cl)(Cl)Cl (stereo unspecified)	inactive: 1.06%
O=C(O)CNc1ccc([As](=O)(O)O)cc1	inactive: 0.58%
O=[N+]([O-])c1cccc(NC2=NCC(CBr)S2)c1 (stereo unspecified)	inactive: 2.47%
COC(=O)C1(C)COP(=O)(Nc2ccccc2)OC1 (stereo unspecified)	inactive: 4.77%
O=P(Nc1ccccn1)(c1ccc(Br)cc1)c1ccc(Br)cc1	inactive: 3.15%
CN(C)C1(CNC(=O)c2ccc(Cl)c(S(N)(=O)=O)c2)CCCCC1	inactive: 3.77%

Structure (SMILES)	inhibition
COc1ccc(N)c([N+](=O)[O-])c1[N+](=O)[O-]	inactive: 2.61%
C[C@H]1OP(=O)(Oc2ccccc2)[C@H](O)[C@H](O)[C@H]1N=[N+]=[N-] (stereo partly specified)	inactive: 0.07%
O=P(Nc1nc2ccccc2s1)(c1ccccc1)c1ccccc1	inactive: 4.47%
O=[As](O)(c1ccccc1)c1ccc(O)cc1	inactive: 1.81%
O=[N+]([O-])c1ccc(O)c(/C=N/Nc2ccc([N+](=O)[O-])cc2[N+](=O)[O-])c1	inactive: 6.76%
O=[N+]([O-])c1ncn(CCn2cnc([N+](=O)[O-])n2)n1	inactive: 1.06%
CC(=O)NC(SC(=S)N(C)C)C(Cl)(Cl)Cl (stereo unspecified)	inactive: -1.28%
O=C(OC1CN2CCC1CC2)c1cccc(Cl)c1 (stereo unspecified)	inactive: 3.14%
Nc1ccc([As](=O)(O)c2ccc([N+](=O)[O-])cc2)cc1	inactive: 3.49%
C(Cc1nn[nH]n1)Cc1nn[nH]n1	inactive: 0.4%
CC(C)C(=O)NC(Sc1ccccc1)C(Cl)(Cl)Cl (stereo unspecified)	inactive: 5.66%
O=P(Nc1nccs1)(c1ccccc1)c1ccccc1	inactive: 3.07%
c1nnnn1CCn1cnnn1	inactive: -0.78%
CCOc1ccc(C2=NCC(CBr)S2)cc1 (stereo unspecified)	inactive: 9.04%
O=P1(Nc2nc3ccc(Cl)cc3s2)COc2ccccc2O1 (stereo unspecified)	inactive: 4.3%
CC(C)(C)C(=O)NC(Sc1ccccc1)C(Cl)(Cl)Cl (stereo unspecified)	inactive: -2.03%
CCc1cc(O)c([N+](=O)[O-])c(C)c1[N+](=O)[O-]	inactive: 4.6%
C[C@@H]1C=CCP(=O)(Oc2ccccc2)O1 (stereo partly specified)	inactive: 8.07%
C[C@H]1OP(=O)(Oc2ccccc2)C[C@@H]2O[C@@H]21 (stereo partly specified)	inactive: -0.94%

Structure (SMILES)	inhibition
Cc1ccccc1CN(C)C(=O)COC(=O)C(O)(c1ccccc1)c1ccccc1	inactive: 9.66%
COC(=O)C1(C)COP(=O)(NCc2ccccc2)OC1 (stereo unspecified)	inactive: -2.96%
N#C/C(=C\c1ccc(N(CCBr)CCBr)cc1)C(N)=O	inactive: 6.97%
CC(=O)c1ccc(N2CC2c2ccncc2)cc1 (stereo unspecified)	inactive: 10.9%
CC(=O)Nc1ccc(Oc2c([N+](=O)[O-])cc([N+](=O)[O-])cc2[N+](=O)[O-])cc1	inactive: 0.28%
CC(=O)Nc1ccc([As](=O)(O)O)c(O)c1	inactive: 2.9%
CCNC(=S)/N=C(\N)N[N+](=O)[O-]	inactive: 9.97%
O=C(NC1CCS(=O)(=O)C1)NP(=S)(Oc1ccccc1)Oc1ccccc1 (stereo unspecified)	inactive: 6.36%
O=P1(N(CCCl)CCCl)OCCC2CCCCN21 (stereo unspecified)	inactive: 1.27%
CCC(=O)N1C2C3N(C(=O)CC)C1C1N(C(=O)CC)C(C(N1C(=O)CC)N3C(=O)CC)N2C(=O)CC	inactive: 3.9%
O=C(OC1CN2CCC1CC2)c1ccccc1 (stereo unspecified)	inactive: 1.61%
Cc1ccc(OP(=O)(Nc2ccccn2)Oc2ccc(C)cc2)cc1	inactive: 5.63%
CC(=O)NC(SC(=S)N(CC(C)C)CC(C)C)C(Cl)(Cl)Cl (stereo unspecified)	inactive: 2.78%
COC(=O)c1cc2c(s1)N=C(c1ccccc1)N(C)P2(=O)N1CCOCC1 (stereo unspecified)	inactive: 5.75%
CN(C)C(=O)Oc1noc2ccccc12	inactive: 4.44%
O=c1c2cc([N+](=O)[O-])ccc2[nH]c2c([N+](=O)[O-])cc([N+](=O)[O-])cc12	active: 36.9%
Cc1ccccc1OP(=O)(Nc1ccccn1)Oc1ccccc1C	inactive: 2.88%
CC(NC(=O)COC(=O)C(O)(c1ccccc1)c1ccccc1)c1ccccc1 (stereo unspecified)	inactive: 4.83%
